Measurements taken from PubChem BioAssay AID485313 (National Center for Advancing Translational Sciences (NCATS), 2010).
The list shows a part of the results, in another mix than the full data. The source made the active and inactive calls. The call rests on the fitted dose curve; in most records, active means well fitted activation curve with a large enough effect; inconclusive means small, poorly fitted or top-dose-only effect; inactive means no such curve, though single readings can be large or run the other way.

assay: qHTS Assay for NPC1 Promoter Activators; conditions: Huh7 NPC1 promoter luciferase reporter, 24 h; at 9.22 µM (top of the series);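 further: reporter is driven by a mutant NPC1 promoter; % of control where 0% means no effect; nearly all actives have a fitted effect of over 60% in size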

SMILES	activation
CP(=O)(Nc1ccc2c(c1)OCCO2)Oc1ccccc1 (stereo not drawn)	inactive: -0.46%
Cc1ccccc1NP(C)(=O)Nc1ccccc1C	inactive: -0.617%
CP(=O)(Nc1ccc(SC(F)(F)F)cc1)Oc1ccc(F)cc1 (stereo not drawn)	inactive: 2.93%
CCOP(C)(=S)SCC(=O)NC(C)(CC)C(=O)O (stereo not drawn)	inactive: -0.877%
O=[N+]([O-])c1ccc(OP2(=O)COCCO2)cc1 (stereo not drawn)	inactive: -1.79%
Cc1cc(-c2cccc3ccccc23)c(C)cn1.O=[N+]([O-])c1cc([N+](=O)[O-])c(O)c([N+](=O)[O-])c1	inactive: -1.99%
COc1ccc(OP(C)(=O)Nc2cccc(Br)c2)cc1 (stereo not drawn)	inactive: 0.638%
CN(C)CCOC(=O)C(O)(c1ccccc1)C1CCCCC1 (stereo not drawn)	inactive: 0.655%
COc1ccc(NP(C)(=O)Oc2ccccc2OC)cc1 (stereo not drawn)	inactive: -5.71%
CCN(CC)CCCOC(=O)C(O)(c1ccccc1)C1CCCCC1 (stereo not drawn)	inactive: 0.606%
CP(=O)(Nc1ccccc1)Oc1ccc(F)cc1 (stereo not drawn)	inactive: -1.09%
CCCCCOc1ccc(NP(C)(=O)Oc2ccc(Cl)cc2Cl)cc1 (stereo not drawn)	inactive: 0.931%
CCOC(=O)c1ccc(NP(C)(=O)Oc2ccc(F)cc2)cc1 (stereo not drawn)	inactive: -7.8%
COc1ccc(OP(C)(=O)Nc2ccc(SC(F)(F)F)cc2)cc1 (stereo not drawn)	inactive: -0.269%
O=C(OCCN1CCN(CCOCc2ccccc2)CC1)C(O)(c1ccccc1)c1ccccc1	inactive: -2.54%
CP(=O)(Nc1ccccc1F)Oc1ccccc1 (stereo not drawn)	inactive: -2.24%
CC(C)c1ccc(OP(C)(=O)Nc2ccc(SC(F)(F)F)cc2)cc1 (stereo not drawn)	inactive: -2.75%
O=[N+]([O-])c1cc([N+](=O)[O-])c(Nc2ccccn2)c([N+](=O)[O-])c1	inactive: -31.3%
Cc1c(NP(C)(=O)Oc2ccc(C(C)C)cc2)c(=O)n(-c2ccccc2)n1C (stereo not drawn)	inactive: 1.88%
CP(=O)(Nc1ccccn1)Oc1ccccc1 (stereo not drawn)	inactive: -5.99%
COc1ccccc1OP(C)(=O)Nc1ccc(C)cc1C (stereo not drawn)	inactive: -1.1%
CCc1ccc(OP(C)(=O)O)cc1	inactive: 0.423%
COc1ccccc1OP(C)(=O)Nc1ccc(Br)cc1 (stereo not drawn)	inactive: 1.79%
COc1ccc(OP(C)(=O)Nc2ccccn2)cc1 (stereo not drawn)	inactive: -2.51%
CN(C)CCOC(=O)C(O)(c1ccccc1)C1CCCC1 (stereo not drawn)	inactive: 11.5%
CP(=O)(OCCOc1ccccc1)OCCOc1ccccc1	inactive: 1.43%
CP(=O)(Nc1ccc(Cl)cc1Cl)Oc1ccccc1 (stereo not drawn)	inactive: -12.1%
Cc1cc(C)cc(OP(C)(=O)Nc2cccc(C(F)(F)F)c2)c1 (stereo not drawn)	inactive: -6%
